# For part of these data: This list holds what a sample rich in strong results left over. How the calls were made is not given here. The list shows a part of the results, in another mix than the full data.
# Protein sequences, listed by entry. Tags and fused reporters are not part of them. Lines headed by an entry give the natural chain unless they say otherwise; changes in a name come on top.
# UniProt P43250, whole entry, looked up: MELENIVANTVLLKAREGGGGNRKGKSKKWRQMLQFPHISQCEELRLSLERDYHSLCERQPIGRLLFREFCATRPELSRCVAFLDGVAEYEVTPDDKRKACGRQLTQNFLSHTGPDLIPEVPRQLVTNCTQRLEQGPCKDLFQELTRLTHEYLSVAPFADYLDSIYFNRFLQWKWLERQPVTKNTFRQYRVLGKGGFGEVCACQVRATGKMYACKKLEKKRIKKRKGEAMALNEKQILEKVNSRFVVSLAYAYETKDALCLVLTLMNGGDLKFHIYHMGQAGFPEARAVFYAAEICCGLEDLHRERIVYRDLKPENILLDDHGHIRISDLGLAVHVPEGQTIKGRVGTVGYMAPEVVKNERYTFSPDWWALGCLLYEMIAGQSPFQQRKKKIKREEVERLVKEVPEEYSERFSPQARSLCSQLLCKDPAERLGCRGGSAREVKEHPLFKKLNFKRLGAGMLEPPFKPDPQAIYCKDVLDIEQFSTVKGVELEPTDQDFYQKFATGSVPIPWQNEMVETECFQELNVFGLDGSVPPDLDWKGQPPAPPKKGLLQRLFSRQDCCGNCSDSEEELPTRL
# UniProt P49840: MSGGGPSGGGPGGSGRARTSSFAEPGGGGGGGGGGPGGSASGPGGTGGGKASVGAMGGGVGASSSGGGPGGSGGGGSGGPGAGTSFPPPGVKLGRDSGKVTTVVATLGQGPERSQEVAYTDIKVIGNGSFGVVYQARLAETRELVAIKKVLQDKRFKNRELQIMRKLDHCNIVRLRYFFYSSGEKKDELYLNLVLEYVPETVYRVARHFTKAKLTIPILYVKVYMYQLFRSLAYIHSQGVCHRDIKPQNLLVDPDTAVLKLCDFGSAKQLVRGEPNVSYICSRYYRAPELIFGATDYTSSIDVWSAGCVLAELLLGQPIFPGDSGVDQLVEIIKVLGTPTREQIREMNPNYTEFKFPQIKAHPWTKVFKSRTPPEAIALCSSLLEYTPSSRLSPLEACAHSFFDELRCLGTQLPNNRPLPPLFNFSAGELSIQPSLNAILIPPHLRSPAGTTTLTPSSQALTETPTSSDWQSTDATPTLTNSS
# UniProt Q86Z02: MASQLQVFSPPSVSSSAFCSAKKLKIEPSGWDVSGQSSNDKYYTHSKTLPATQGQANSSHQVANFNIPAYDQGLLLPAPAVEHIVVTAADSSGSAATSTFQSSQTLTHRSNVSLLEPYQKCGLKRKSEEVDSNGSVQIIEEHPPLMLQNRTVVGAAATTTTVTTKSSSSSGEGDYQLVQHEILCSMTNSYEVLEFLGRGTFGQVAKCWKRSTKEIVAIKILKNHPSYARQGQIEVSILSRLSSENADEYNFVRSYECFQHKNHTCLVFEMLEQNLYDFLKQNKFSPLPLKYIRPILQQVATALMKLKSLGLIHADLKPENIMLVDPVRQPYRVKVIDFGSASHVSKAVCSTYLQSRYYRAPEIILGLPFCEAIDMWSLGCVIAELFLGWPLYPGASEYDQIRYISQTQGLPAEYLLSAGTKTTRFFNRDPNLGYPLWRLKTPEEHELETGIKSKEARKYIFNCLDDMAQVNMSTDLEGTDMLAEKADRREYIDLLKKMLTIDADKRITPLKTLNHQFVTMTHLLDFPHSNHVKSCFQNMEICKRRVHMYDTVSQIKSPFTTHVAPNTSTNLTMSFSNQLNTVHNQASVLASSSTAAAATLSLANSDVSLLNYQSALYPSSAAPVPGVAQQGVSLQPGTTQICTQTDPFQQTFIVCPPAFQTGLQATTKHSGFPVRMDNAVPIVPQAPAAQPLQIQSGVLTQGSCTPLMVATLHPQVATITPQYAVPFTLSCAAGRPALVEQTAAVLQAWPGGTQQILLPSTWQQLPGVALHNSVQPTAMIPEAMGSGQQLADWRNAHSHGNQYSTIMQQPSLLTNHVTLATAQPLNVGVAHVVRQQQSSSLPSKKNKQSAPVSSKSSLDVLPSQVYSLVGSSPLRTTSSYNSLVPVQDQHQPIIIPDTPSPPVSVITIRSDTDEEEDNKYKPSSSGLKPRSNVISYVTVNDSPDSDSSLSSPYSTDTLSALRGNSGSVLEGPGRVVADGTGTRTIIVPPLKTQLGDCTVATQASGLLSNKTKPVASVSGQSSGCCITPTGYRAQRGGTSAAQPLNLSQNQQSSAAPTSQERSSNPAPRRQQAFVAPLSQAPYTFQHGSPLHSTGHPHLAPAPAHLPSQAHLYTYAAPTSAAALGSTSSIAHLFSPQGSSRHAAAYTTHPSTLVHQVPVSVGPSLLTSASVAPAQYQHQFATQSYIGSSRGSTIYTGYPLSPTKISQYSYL
# UniProt Q05513: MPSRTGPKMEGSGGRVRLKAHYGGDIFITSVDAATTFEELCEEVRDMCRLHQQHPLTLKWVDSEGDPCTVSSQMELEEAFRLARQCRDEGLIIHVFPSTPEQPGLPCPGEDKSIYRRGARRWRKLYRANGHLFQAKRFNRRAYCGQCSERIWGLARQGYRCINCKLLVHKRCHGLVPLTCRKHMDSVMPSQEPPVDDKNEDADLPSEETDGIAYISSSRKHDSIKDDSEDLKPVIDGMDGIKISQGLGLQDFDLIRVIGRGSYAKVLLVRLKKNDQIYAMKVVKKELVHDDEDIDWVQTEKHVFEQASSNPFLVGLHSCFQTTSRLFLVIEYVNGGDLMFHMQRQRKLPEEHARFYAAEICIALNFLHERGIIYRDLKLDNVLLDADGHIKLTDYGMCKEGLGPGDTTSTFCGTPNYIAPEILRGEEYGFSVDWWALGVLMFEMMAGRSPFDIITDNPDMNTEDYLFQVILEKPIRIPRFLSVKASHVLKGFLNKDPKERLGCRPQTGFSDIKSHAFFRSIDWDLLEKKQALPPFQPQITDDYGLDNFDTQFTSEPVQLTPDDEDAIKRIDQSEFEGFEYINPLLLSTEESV
# UniProt Q9H4B4: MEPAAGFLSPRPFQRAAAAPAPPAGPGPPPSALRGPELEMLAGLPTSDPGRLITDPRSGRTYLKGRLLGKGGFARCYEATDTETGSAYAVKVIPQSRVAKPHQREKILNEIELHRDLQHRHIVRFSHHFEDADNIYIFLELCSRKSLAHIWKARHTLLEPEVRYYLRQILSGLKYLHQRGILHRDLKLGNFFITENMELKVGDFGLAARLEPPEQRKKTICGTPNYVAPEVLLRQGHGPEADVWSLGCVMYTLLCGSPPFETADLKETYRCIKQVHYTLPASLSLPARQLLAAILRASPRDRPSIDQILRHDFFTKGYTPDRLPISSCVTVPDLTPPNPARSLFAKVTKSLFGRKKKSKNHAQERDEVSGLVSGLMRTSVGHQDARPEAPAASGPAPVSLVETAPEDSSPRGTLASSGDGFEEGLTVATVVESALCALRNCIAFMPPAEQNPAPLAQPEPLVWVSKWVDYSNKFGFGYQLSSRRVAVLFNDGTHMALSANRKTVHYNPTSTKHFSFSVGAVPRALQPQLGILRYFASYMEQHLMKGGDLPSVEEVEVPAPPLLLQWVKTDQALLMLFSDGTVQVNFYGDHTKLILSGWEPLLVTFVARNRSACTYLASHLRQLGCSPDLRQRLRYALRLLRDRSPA
# UniProt P08922: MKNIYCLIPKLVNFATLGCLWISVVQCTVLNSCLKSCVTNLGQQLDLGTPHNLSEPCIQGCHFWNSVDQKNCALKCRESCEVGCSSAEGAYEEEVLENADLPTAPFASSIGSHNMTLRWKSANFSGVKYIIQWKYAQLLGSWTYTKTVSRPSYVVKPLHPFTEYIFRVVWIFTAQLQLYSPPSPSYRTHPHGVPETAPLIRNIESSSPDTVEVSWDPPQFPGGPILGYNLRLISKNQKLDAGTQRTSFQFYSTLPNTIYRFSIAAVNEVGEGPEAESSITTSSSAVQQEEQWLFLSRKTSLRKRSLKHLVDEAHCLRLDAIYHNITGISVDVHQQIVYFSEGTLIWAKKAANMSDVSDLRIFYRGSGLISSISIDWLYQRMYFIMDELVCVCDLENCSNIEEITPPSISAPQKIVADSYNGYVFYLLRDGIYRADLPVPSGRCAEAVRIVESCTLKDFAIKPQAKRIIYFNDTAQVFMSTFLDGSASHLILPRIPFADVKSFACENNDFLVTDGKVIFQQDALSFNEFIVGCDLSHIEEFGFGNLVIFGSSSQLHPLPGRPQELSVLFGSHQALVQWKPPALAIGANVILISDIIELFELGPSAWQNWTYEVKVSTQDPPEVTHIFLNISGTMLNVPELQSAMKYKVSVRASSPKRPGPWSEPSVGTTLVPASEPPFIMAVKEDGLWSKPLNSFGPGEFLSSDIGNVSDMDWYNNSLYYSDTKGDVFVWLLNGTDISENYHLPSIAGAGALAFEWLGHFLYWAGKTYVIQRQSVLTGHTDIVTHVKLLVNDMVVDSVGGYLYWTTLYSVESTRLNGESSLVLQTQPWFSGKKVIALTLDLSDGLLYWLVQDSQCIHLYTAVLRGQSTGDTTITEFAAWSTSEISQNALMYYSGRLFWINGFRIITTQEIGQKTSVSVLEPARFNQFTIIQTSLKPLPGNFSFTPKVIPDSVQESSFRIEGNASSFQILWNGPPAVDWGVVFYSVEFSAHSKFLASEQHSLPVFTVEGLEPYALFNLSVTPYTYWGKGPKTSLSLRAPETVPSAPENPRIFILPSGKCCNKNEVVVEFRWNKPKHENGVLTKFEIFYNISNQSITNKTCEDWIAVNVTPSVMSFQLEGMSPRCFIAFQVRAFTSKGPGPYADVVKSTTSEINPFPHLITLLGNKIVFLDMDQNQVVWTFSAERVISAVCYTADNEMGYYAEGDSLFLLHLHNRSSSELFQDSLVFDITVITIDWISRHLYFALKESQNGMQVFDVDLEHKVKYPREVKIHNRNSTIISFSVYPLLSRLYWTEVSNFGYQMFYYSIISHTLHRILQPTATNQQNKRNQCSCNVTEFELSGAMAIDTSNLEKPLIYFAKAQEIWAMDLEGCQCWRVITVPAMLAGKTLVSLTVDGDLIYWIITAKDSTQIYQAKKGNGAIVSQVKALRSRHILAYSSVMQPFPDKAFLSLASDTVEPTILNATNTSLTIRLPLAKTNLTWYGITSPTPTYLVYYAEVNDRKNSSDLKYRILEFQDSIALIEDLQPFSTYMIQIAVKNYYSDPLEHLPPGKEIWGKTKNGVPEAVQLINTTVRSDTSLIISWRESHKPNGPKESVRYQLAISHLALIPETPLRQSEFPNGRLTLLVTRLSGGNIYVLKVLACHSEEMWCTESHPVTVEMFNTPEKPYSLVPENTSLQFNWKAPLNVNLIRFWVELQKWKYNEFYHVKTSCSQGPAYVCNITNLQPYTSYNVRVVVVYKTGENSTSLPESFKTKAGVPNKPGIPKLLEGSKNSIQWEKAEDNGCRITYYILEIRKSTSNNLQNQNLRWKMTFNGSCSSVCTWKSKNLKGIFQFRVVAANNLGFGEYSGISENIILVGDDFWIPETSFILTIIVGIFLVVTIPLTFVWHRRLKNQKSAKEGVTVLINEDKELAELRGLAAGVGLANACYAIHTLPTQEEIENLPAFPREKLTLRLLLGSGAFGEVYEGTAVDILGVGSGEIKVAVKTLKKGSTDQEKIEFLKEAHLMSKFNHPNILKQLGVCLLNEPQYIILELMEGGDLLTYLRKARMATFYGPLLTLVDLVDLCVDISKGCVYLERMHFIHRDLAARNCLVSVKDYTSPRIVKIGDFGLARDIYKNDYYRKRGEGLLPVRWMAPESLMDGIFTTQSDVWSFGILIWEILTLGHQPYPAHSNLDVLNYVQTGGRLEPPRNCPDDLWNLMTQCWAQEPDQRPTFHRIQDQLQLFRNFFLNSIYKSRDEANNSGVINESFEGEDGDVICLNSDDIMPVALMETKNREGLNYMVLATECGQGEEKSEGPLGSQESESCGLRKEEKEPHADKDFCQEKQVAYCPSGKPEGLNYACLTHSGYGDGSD
# UniProt Q15759, whole entry: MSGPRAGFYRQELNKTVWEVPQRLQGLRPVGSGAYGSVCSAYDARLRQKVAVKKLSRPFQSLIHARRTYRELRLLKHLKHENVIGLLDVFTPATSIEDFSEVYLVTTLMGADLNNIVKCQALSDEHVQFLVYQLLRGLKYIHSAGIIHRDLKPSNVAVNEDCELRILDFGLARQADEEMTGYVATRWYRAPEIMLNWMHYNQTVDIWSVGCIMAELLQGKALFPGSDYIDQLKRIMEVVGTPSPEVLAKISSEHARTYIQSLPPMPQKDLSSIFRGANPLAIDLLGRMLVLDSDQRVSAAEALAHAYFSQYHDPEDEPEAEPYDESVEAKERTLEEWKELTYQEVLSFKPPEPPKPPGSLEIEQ
# What was measured:
# [1] = biological target: G protein-coupled receptor kinase 6 (Homo sapiens) (UniProt P43250); conditions: at 1 µM
# [2] = biological target: Glycogen synthase kinase-3 alpha (Homo sapiens) (UniProt P49840); conditions: at 1 µM
# [3] = biological target: Homeodomain-interacting protein kinase 1 (Homo sapiens) (UniProt Q86Z02); conditions: at 1 µM
# [4] = biological target: Protein kinase C zeta type (Homo sapiens) (UniProt Q05513); conditions: at 10 µM
# [5] = biological target: T1, Serine/threonine-protein kinase D2 (Homo sapiens) (UniProt Q9BZL6); conditions: at 1 µM
# T1 sequence (whole entry): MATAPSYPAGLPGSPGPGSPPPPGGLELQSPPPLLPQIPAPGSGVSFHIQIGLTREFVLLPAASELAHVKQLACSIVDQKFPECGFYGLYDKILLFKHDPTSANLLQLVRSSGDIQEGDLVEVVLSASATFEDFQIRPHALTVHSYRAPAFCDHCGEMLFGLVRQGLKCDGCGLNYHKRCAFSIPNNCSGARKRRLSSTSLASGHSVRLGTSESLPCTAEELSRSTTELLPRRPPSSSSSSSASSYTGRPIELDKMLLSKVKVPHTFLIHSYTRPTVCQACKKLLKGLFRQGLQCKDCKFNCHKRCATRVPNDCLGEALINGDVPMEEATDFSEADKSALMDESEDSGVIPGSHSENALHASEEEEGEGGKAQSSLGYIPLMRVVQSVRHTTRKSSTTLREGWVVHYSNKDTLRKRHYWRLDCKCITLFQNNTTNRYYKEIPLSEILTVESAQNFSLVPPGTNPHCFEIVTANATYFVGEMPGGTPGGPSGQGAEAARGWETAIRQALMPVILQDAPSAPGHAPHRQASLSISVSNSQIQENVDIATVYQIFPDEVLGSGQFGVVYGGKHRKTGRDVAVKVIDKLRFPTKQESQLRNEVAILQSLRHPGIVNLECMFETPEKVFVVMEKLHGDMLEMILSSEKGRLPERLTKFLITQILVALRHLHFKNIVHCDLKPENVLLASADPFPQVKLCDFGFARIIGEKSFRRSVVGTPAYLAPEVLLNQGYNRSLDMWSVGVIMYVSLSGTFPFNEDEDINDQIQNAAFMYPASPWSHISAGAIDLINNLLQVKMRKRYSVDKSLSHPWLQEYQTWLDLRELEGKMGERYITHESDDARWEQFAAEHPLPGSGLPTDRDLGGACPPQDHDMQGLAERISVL
# [6] = biological target: Serine/threonine-protein kinase pim-3 (Homo sapiens) (UniProt Q86V86); conditions: at 1 µM
# [7] = biological target: Serine/threonine-protein kinase pim-3 (Homo sapiens) (UniProt Q86V86); conditions: at 10 µM
# [8] = biological target: Serine/threonine-protein kinase PLK3 (Homo sapiens) (UniProt Q9H4B4); conditions: at 1 µM
# [9] = biological target: Serine/threonine-protein kinase PLK3 (Homo sapiens) (UniProt Q9H4B4); conditions: at 10 µM
# [10] = biological target: Proto-oncogene tyrosine-protein kinase ROS (Homo sapiens) (UniProt P08922); conditions: at 1 µM
# [11] = biological target: Proto-oncogene tyrosine-protein kinase ROS (Homo sapiens) (UniProt P08922); conditions: at 10 µM
# [12] = biological target: Mitogen-activated protein kinase 11 (Homo sapiens) (UniProt Q15759); conditions: at 1 µM
# [13] = biological target: T2, Mitogen-activated protein kinase 12 (Homo sapiens) (UniProt P53778); conditions: at 1 µM
# T2 sequence (whole entry): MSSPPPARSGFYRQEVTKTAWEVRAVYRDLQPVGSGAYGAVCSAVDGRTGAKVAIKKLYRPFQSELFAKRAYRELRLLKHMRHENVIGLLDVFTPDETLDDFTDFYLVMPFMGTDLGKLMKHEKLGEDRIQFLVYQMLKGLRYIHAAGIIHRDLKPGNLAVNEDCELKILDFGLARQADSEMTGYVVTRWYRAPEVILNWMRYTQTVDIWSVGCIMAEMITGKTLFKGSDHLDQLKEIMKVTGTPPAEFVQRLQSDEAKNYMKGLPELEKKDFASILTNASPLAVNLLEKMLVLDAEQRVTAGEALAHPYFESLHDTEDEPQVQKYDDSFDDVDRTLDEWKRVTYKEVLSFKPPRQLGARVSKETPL
# [14] = biological target: T2, Mitogen-activated protein kinase 12 (Homo sapiens); conditions: at 10 µM
# [15] = biological target: T3, Mitogen-activated protein kinase 13 (Homo sapiens) (UniProt O15264); conditions: at 10 µM
# T3 sequence (whole entry): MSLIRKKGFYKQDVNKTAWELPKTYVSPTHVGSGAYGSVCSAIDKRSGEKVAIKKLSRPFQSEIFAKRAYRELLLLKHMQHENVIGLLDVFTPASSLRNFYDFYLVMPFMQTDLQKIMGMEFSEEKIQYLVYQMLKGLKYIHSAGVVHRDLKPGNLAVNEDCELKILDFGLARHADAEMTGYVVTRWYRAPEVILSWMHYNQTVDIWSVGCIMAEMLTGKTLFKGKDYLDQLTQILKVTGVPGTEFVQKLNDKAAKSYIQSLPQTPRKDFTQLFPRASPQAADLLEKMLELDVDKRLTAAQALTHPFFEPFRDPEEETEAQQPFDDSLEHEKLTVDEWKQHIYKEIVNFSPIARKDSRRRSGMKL
structure (smiles),measurement,setting,value
O=C(c1cc2cc(O)ccc2[nH]1)c1cc2cc(O)ccc2[nH]1,residual activity,[1],88%
same,residual activity,[2],85%
same,residual activity,[3],99%
same,residual activity,[4],96%
same,residual activity,[5],103%
same,residual activity,[6],84%
same,residual activity,[7],91%
same,residual activity,[8],inactive: 85%
same,residual activity,[9],89%
same,residual activity,[10],93%
same,residual activity,[11],85%
same,residual activity,[12],98%
same,residual activity,[13],94%
same,residual activity,[14],82%
same,residual activity,[15],84%
